Measured values from US20240043794A1, “Chemically Defined Serum Albumin Substitutes” (Life Technologies Corporation, priority 2020, published 2024).

Assays:
[1] = Total antioxidant power, Ferric Antioxidant Status Detection Kit; type: biochemical
Method: The experiments described herein were performed to explore the physiological functions of albumins and to explore replacement of albumins with chemically defined components. First, antioxidant properties of albumins was analyzed. Total antioxidant power of various albumins was measured by the using the Ferric Antioxidant Status Detection Kit (Thermo Fisher Scientific, Waltham, MA), according to the manufacturer's protocol. […] As the use of plasma in culture media is source of blood origin contaminants, the elimination of serum and plasma is highly desirable.

[2] = Thiol-based antioxidant activity, Ellman's reagent (DTNB); type: biochemical
Description: Albumin has a cysteine residue at position 34, which exists either as a free thiol or may form a disulfide bond with glutathione (GSH). Because glutathione peroxidase uses GSH as a reductant to remove H2O2, a powerful oxidizing agent that is potentially damaging to cells, albumins play a pivotal role in regulating intracellular levels of GSH. Using Ellman's reagent (DTNB, 5,5-dithio-bis-(2-nitrobenzoic acid)), which produces 1,3,5-Trinitrobenzene (TNB) in the presence of thiols, various albumins were tested for thiol-based antioxidant activity. […] Further, activity levels differed among the types and sources of albumins analyzed.

neuronal cell = test: Interactions between B27 supplement components and albumins, neuronal cell viability; type: cell-based; conditions: B27-supplemented media
Method: Next, interactions between different components of B27 supplement and various albumins were analyzed (FIGS. 1B-1J). The effect of these molecular interactions were also assessed for their effect on neuronal cell stability in cell culture. […] Further, X1 and X2 interactions with BSA became saturated when higher concentrations of BSA were titrated into culture. […] Results are illustrated in FIGS. 1B-1E. When a broad range of rHSA was tested in B27 supplemented cultures, it was shown that component X1 and competed with component X2 for rHSA binding.

HeLa cells = test: HeLa proliferation with rHSA and antioxidants; type: cell-based; conditions: FIG. 18B
Method: (§1) The antioxidants provided herein were assessed in compositions including albumin. Applicants investigated whether antioxidants may confer beneficial properties to cell cultures, in addition to reversing toxic features of albumins when used in combination. […] HEK-293 cells, when assessed with a PRESTOBLUE™ cell viability reagent (Thermo Fisher Scientific, Waltham, MA) according to the manufacturer's protocol.

HEK-293 cells = test: HEK-293 proliferation with rHSA and antioxidants, PRESTOBLUE; type: cell-based; conditions: FIG. 18A
Method: as §1

[3] = Superoxide Dismutase (SOD) Colorimetric Activity Kit; type: biochemical
Method: Various classes of antioxidant activity in albumins were investigated. Applicants first analyzed the superoxide dismutase (SOD) activity of various albumins, utilizing the Superoxide Dismutase (SOD) Colorimetric Activity Kit (Thermo Fisher Scientific, Waltham, MA), according to the manufacturer's protocol. Briefly, SOD activity was assessed utilizing an assay comprising the reaction of a substrate and Xanthine Oxidase to form superoxide (O^−2), the levels of which are decreased by SOD activity.
Next, the ability of chemically defined components to replace SOD antioxidant activity was tested. Mito-Tempo, which scavenges O2•^− in mitochondria, was compared with HSA for its ability to reduce superoxide, as assessed using the Superoxide Dismutase (SOD) Colorimetric Activity Kit (Thermo Fisher Scientific, Waltham, MA), according to the manufacturer's protocol. […] Thus, this compound may be used to replicate and replace albumin SOD-like antioxidant functionality.

Q: What does the source list for “plasma HSA: human serum albumin from plasma”?
A: total reducing power [1]: significantly higher level of reducing power compared to recombinant HSAs; GSH based (thiol) antioxidant activity [2]: highest

Q: With rHSA: recombinant human serum albumin as the substance, how does the “effect on neuronal viability of albumin interaction with X3 (Linoleic acid) and X4 (Linolenic acid)” value (neuronal cell) read?
A: Its value is “negatively affected viability”.

Q: What about the “toxicity to HeLa cells” value (HeLa cells) of the same substance?
A: The value was “toxic”.

Q: And the “toxicity to HEK-293 cells” value (HEK-293 cells)?
A: Its value is “toxic”.

Q: For “recombinant HSA derived from rice: recombinant human serum albumin derived from rice”, which SOD activity [3] is on record?
A: Its SOD activity is “highest antioxidant activity”.
